Molecular target: Kappa-type opioid receptor (Homo sapiens, UniProt P41145)
Assay: Incorporation of [35S]GTP-gamma-S, into CHO membranes expressing human Opioid receptor kappa 1
Format: functional

Chains of the proteins cited; added tags and fusions are not shown. Lines headed by an entry give the natural chain unless they say otherwise; changes in a name come on top.
UniProt P41145: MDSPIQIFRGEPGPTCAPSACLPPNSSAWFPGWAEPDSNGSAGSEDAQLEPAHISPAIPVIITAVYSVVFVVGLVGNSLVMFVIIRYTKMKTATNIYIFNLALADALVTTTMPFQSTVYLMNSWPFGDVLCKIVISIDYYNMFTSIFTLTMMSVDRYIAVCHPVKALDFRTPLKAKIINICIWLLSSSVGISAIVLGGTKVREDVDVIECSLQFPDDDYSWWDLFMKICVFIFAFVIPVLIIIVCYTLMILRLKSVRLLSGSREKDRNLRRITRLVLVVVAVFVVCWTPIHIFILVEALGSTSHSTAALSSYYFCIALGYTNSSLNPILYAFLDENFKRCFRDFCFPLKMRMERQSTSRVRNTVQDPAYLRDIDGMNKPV

## CN(C(=O)Cc1ccc(Cl)c(Cl)c1)C1CCC2(CCCO2)CC1N1CCCC1 (stereo unspecified)
  Emax: 120%
